{"sequences": {"note": "The chains behind the UniProt entries cited, without tags or fusion partners.", "UniProt P35363, whole entry, looked up": "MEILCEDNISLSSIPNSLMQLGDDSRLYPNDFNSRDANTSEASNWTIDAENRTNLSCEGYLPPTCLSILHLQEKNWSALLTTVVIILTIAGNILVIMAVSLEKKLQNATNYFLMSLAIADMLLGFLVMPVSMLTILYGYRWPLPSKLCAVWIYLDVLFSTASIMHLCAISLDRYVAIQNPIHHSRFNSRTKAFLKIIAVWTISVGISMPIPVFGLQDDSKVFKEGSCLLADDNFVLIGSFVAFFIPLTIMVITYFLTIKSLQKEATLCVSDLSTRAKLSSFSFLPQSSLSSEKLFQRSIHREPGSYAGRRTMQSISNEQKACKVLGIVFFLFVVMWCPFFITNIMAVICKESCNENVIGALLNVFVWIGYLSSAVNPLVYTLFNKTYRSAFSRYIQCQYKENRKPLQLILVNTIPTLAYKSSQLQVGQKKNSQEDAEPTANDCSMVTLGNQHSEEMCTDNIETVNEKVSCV"}, "source": "PubChem BioAssay AID624169", "about": "(The Scripps Research Institute Molecular Screening Center, 2012)", "note": "The entries are a selection whose mix differs from that of the whole data set. Calls of active or inactive are those of the source.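 The calls were made as follows: active = activation above a run cutoff, the mean activation of all tested compounds plus 3 SD (cut at about 14% in these data); inactive = the rest.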"}
{"molecular_target": "5-hydroxytryptamine receptor 2A (Mus musculus) (UniProt P35363)", "experiment": "activation of mouse 5-HT2A receptor – cell-based, luminescence, primary screen (AID 624169);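 also: 0% = plate median of compound wells and 100% = 30 µM serotonin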", "settings": "CHO-K1 mHTR2A beta-arrestin complementation, at 7.6 µM, hits give high values, percent of 30 µM serotonin response"}
{"smiles": "CN(CCCl)Cc1cc(Cl)c(NC2=NCCN2)c(Cl)c1", "activation": "inactive: 4.33%"}
{"smiles": "CCOP(=O)(Nc1ccc(C)cn1)OCC", "activation": "inactive: -0.7%"}
{"smiles": "CCOP(=O)(NC(=NC(C)c1ccccc1)NC(C)c1ccccc1)OCC", "note": "(centres undefined)", "activation": "inactive: -4.63%"}
{"smiles": "CCC1=CC2Cc3nc4ccc(Cl)cc4c(N)c3C(C1)C2", "note": "(centres undefined)", "activation": "inactive: -0.75%"}
{"smiles": "O=P1(Nc2ccccn2)COc2ccccc2OC1", "activation": "inactive: 2.35%"}
{"smiles": "CC(C)(C)C(=O)NC(Sc1ncccn1)C(Cl)(Cl)Cl", "note": "(centres undefined)", "activation": "inactive: 7.29%"}
{"smiles": "Clc1n[nH]nc1-c1nn[nH][15n]1", "activation": "inactive: -2.85%"}
{"smiles": "O=P1(N(CCCl)CCCl)NCCC(C(F)(F)F)O1", "note": "(centres undefined)", "activation": "inactive: 4.43%"}
{"smiles": "COc1ccccc1CNC(=O)COC(=O)C(O)(c1ccccc1)c1ccccc1", "activation": "inactive: -0.55%"}
{"smiles": "CC1(CBr)Cn2c(nc3ccccc3c2=O)S1", "note": "(centres undefined)", "activation": "inactive: -2.61%"}
{"smiles": "CN(C(=O)Cc1ccc(Cl)c(Cl)c1)[C@@H]1CCCC[C@H]1N1CCCC1", "activation": "inactive: -4.92%"}
{"smiles": "CC(C)/C=N\\N=C(\\N)N[N+](=O)[O-]", "activation": "inactive: 3.48%"}
{"smiles": "Cc1ccc(C(=O)OC2CN3CCC2CC3)cc1", "note": "(centres undefined)", "activation": "inactive: -1.6%"}
{"smiles": "CC1CCC(C(C)C)C(OP(=O)(Nc2ccccn2)c2ccccc2)C1", "note": "(centres undefined)", "activation": "inactive: 1.27%"}
{"smiles": "Cc1nn(-c2ccccc2)c2c1P(=O)(N1CCOCC1)N(C)C(c1ccccc1)=N2", "note": "(centres undefined)", "activation": "inactive: 3.39%"}
{"smiles": "CCCC1OP(=O)(Nc2ccccc2)OCC1CC", "note": "(centres undefined)", "activation": "inactive: -4.65%"}
{"smiles": "O=C(/C=C/c1ccccc1)OC1CN2CCC1CC2", "note": "(centres undefined)", "activation": "inactive: -2.42%"}
{"smiles": "CN(C)C1(CNC(=O)c2ccc(S(C)(=O)=O)cc2)CCCCC1", "activation": "inactive: 0.7%"}
{"smiles": "O=P1(Nc2ncccn2)COc2ccccc2OC1", "activation": "inactive: 1.13%"}
{"smiles": "Cc1ccc(S(=O)(=O)N(CCCN)CCCc2c(C)nc(N)[nH]c2=O)cc1", "activation": "inactive: -9.11%"}
{"smiles": "NS(=O)(=O)c1cccc(NC(=O)COC(=O)C(O)(c2ccccc2)c2ccccc2)c1", "activation": "inactive: -5.73%"}
{"smiles": "O=P1(Nc2ccc(Br)cn2)COc2ccccc2OC1", "activation": "inactive: 1.72%"}
{"smiles": "Cc1ccc(OCC(=O)OC2CN3CCC2CC3)cc1", "note": "(centres undefined)", "activation": "inactive: 0.88%"}
{"smiles": "O=[As](O)(c1cccs1)c1cccs1", "activation": "inactive: 12.3%"}
{"smiles": "Nc1cccc([As](=O)(O)c2ccccc2)c1", "activation": "inactive: -2.65%"}
{"smiles": "CS(=O)(=O)c1cc([N+](=O)[O-])c2no[n+]([O-])c2c1", "activation": "inactive: -0.2%"}
{"smiles": "O=P(Nc1nccs1)(c1ccccc1)c1nc2ccccc2s1", "note": "(centres undefined)", "activation": "inactive: 2.35%"}
{"smiles": "O=P(Nc1nccs1)(Oc1ccccc1)Oc1ccccc1", "activation": "inactive: 10.1%"}
{"smiles": "CCOP1(=S)c2c(C)nn(CCC#N)c2N=C(c2ccccc2F)N1C", "note": "(centres undefined)", "activation": "inactive: -8.4%"}
{"smiles": "O=C(O)COc1ccc([As](=O)(O)O)cc1[N+](=O)[O-]", "activation": "inactive: 0.84%"}
{"smiles": "Nc1ccccc1[As](=O)(O)c1ccccc1", "activation": "inactive: 2.61%"}
{"smiles": "NC(=O)Nc1ccc([As](=O)(O)O)cc1", "activation": "inactive: -1.11%"}
{"smiles": "CN(C(=O)Cc1ccc(Cl)c(Cl)c1)[C@H]1CC[C@@]2(CCCO2)C[C@@H]1N1CCCC1", "activation": "inactive: -4.43%"}
{"smiles": "CN(C)C(=O)c1cc([N+](=O)[O-])cc2c1-c1c(cc([N+](=O)[O-])cc1[N+](=O)[O-])C2=O", "activation": "inactive: -5.27%"}
{"smiles": "O=[N+]([O-])c1ccc2c(c1)nnn2O", "activation": "inactive: -4.41%"}
{"smiles": "CN(C(=O)Cc1ccccc1)[C@@H]1CC[C@]2(CCCO2)C[C@H]1N1CCCC1", "activation": "inactive: -1.61%"}
{"smiles": "CCOP1(=S)c2c(C)nn(CCC#N)c2N=C(c2ccc(F)cc2)N1C", "note": "(centres undefined)", "activation": "inactive: -9.46%"}
{"smiles": "N#CCCN(C(=O)COC(=O)C(O)(c1ccccc1)c1ccccc1)c1ccc(F)cc1", "activation": "inactive: -0.57%"}
{"smiles": "CS(=O)(=O)c1ccc(Cl)c(NC(=O)COC(=O)C(O)(c2ccccc2)c2ccccc2)c1", "activation": "inactive: 2.34%"}
{"smiles": "COc1cc(C(=O)NCC2(N3CCOCC3)CCCCC2)cc(Cl)c1OC(C)C", "activation": "inactive: -6.3%"}
{"smiles": "O=[As](O)(O)c1cccnc1", "activation": "inactive: -1.69%"}
{"smiles": "O=C(OC1CN2CCC1CC2)c1ccc(Cl)cc1", "note": "(centres undefined)", "activation": "inactive: -0.44%"}
{"smiles": "O=[As](O)(c1cccc(O)c1)c1cccc(O)c1", "activation": "inactive: 0.9%"}
{"smiles": "Cc1cccc(OCC(=O)OC2CN3CCC2CC3)c1", "note": "(centres undefined)", "activation": "inactive: -2.12%"}
{"smiles": "CCCOP(=S)(Nc1nc(N)cc(=O)[nH]1)OCCC", "activation": "inactive: -0.06%"}
{"smiles": "Cc1ccc(NCCc2c([N+](=O)[O-])cc([N+](=O)[O-])cc2[N+](=O)[O-])cc1", "activation": "inactive: -5.31%"}
{"smiles": "Nc1cccc2c([As](=O)(O)O)cccc12", "activation": "inactive: -2.59%"}
{"smiles": "CCOP(=O)(Nc1cccc2ccccc12)OCC", "activation": "inactive: 0.88%"}
{"smiles": "COc1cc(C2NCCC3(OCCO3)C2(C)C)cc(OC)c1OC", "note": "(centres undefined)", "activation": "inactive: 0.61%"}
{"smiles": "Cc1cc(=O)[nH]c(N[N+](=O)[O-])n1", "activation": "inactive: -0.96%"}
{"smiles": "O=C(OC1CN2CCC1CC2)C12CC3CC(CC(C3)C1)C2", "note": "(centres undefined)", "activation": "inactive: -1.03%"}
{"smiles": "Cc1c2c(nc3ccccc13)SC(C(Cl)Cl)C2", "note": "(centres undefined)", "activation": "inactive: 4.88%"}
{"smiles": "COc1cc(I)ccc1[As](=O)(O)O", "activation": "inactive: -2.51%"}
{"smiles": "COc1ccc2nc(NP(=O)(c3ccccc3)c3ccccc3)sc2c1", "activation": "inactive: -5.63%"}
{"smiles": "O=P1(N(CCCl)CCCl)OCCCN1CCCl", "note": "(centres undefined)", "activation": "inactive: 1.11%"}
{"smiles": "O=P1(N(CCCl)CCCl)Nc2ccccc2N1", "activation": "inactive: 3.39%"}
{"smiles": "COc1ccc(N/C(=N/P(=O)(N2CCOCC2)N2CCOCC2)N2CCOCC2)cc1", "activation": "inactive: -1.54%"}
{"smiles": "O=[N+]([O-])c1cc(Oc2ccc([N+](=O)[O-])cc2C(F)(F)F)cc([N+](=O)[O-])c1", "activation": "inactive: 2.79%"}
{"smiles": "COc1cc(C(=O)NCC2(N3CCOCC3)CCCCC2)ccc1OCC(C)C", "activation": "inactive: -14.6%"}
{"smiles": "O=[N+]([O-])c1ccc(-c2cc([N+](=O)[O-])c(O)c([N+](=O)[O-])c2)cc1", "activation": "inactive: 1.94%"}
{"smiles": "C[As](=O)(O)c1cccc(C(=O)O)c1", "activation": "inactive: 1.61%"}
{"smiles": "O=[As](O)(c1ccc(O)cc1)c1ccccc1O", "activation": "inactive: 2.74%"}
{"smiles": "Cc1ccc2nc3c(c(C)c2c1)CC(C(Cl)Cl)S3", "note": "(centres undefined)", "activation": "inactive: 3.79%"}
{"smiles": "Cc1ccc(OP(=O)(Nc2ccc([N+](=O)[O-])cn2)Oc2ccc(C)cc2)cc1", "activation": "inactive: 7.2%"}
{"smiles": "[N-]=[N+]=NC1CCCCC1NC(=O)c1cc([N+](=O)[O-])cc([N+](=O)[O-])c1", "note": "(centres undefined)", "activation": "inactive: -4.67%"}
{"smiles": "CC(C)c1ccc(OP(=O)(Nc2ccccn2)Oc2ccccc2F)cc1", "note": "(centres undefined)", "activation": "inactive: 3.67%"}
{"smiles": "COC(=O)C1(C)COP(=O)(N2CCCCCC2)OC1", "note": "(centres undefined)", "activation": "inactive: 3.27%"}
{"smiles": "ClCCSc1nnc(-c2cccnc2)o1", "activation": "inactive: -1.29%"}
{"smiles": "O=[N+]([O-])c1cc([N+](=O)[O-])c(-c2ccn[nH]2)s1", "activation": "inactive: 2.24%"}
{"smiles": "CCN(CC)C(=S)SC(NC=O)C(Cl)(Cl)Cl", "note": "(centres undefined)", "activation": "inactive: 7.95%"}
{"smiles": "O=C(OC1CN2CCC1CC2)c1cccc2[nH]cnc12", "note": "(centres undefined)", "activation": "inactive: 5.29%"}
{"smiles": "CC(C)NC(=O)NP(=O)(Oc1ccccc1)Oc1ccccc1", "activation": "inactive: 2.1%"}
{"smiles": "CC1CCNP(=O)(N(CCCl)CCCl)O1", "note": "(centres undefined)", "activation": "inactive: -1.16%"}
{"smiles": "O=C(O)C(O)c1ccc(N(CCCl)CCCl)cc1", "note": "(centres undefined)", "activation": "inactive: -0.35%"}
{"smiles": "CCOC(=O)Nc1ccc([As](=O)(O)O)c(O)c1", "activation": "inactive: -0.05%"}
{"smiles": "Cc1cc(SC(NC(=O)c2ccccc2)C(Cl)(Cl)Cl)nc(C(C)C)n1", "note": "(centres undefined)", "activation": "inactive: 8.56%"}
{"smiles": "CCCCOc1ccc(C(=O)NCC2(N3CCCCC3)CCCCC2)cc1OC", "activation": "inactive: -6.95%"}
{"smiles": "COP(=O)(OC)N1CC1c1ccccc1", "note": "(centres undefined)", "activation": "inactive: 3.42%"}
{"smiles": "CCOC(=O)Nc1cccc([As](=O)(O)O)c1", "activation": "inactive: -4.47%"}
{"smiles": "O=[N+]([O-])c1ccc(Nc2ccc(Oc3ccc([N+](=O)[O-])cc3[N+](=O)[O-])cc2)c([N+](=O)[O-])c1", "activation": "inactive: 0.57%"}
{"smiles": "Cc1cc(SC(NC=O)C(Cl)(Cl)Cl)ncn1", "note": "(centres undefined)", "activation": "inactive: 4.99%"}
{"smiles": "O=P(Nc1ccccn1)(c1cccc2ccccc12)c1cccc2ccccc12", "activation": "inactive: 2.68%"}
{"smiles": "COC(=O)C1(C)COP(=O)(N2CCCC2)OC1", "note": "(centres undefined)", "activation": "inactive: -3.96%"}
{"smiles": "COP1(=S)c2c(C)nn(CCC#N)c2N=C(c2ccc(F)cc2)N1C", "note": "(centres undefined)", "activation": "inactive: -5.85%"}
{"smiles": "O=C(Nc1ccncc1[N+](=O)[O-])c1ccc([N+](=O)[O-])cc1[N+](=O)[O-]", "activation": "inactive: 7.68%"}
{"smiles": "O=C(COc1ccccc1)OC1CN2CCC1CC2", "note": "(centres undefined)", "activation": "inactive: -0.81%"}
{"smiles": "O=C(O)C(=O)c1ccc(N(CCCl)CCCl)cc1", "activation": "inactive: -0.34%"}
{"smiles": "CCOC(=O)c1ccc(NC(=O)C(C)(CCl)SC)cc1", "note": "(centres undefined)", "activation": "inactive: -1.86%"}
{"smiles": "CSc1ccc(Nc2c([N+](=O)[O-])cc([N+](=O)[O-])cc2[N+](=O)[O-])cc1", "activation": "inactive: -11.1%"}
{"smiles": "O=C(OC1CN2CCC1CC2)c1cccc([N+](=O)[O-])c1", "note": "(centres undefined)", "activation": "inactive: 3.13%"}
{"smiles": "CCC(C)N(CC(C)C)C(=S)SC(NC(C)=O)C(Cl)(Cl)Cl", "note": "(centres undefined)", "activation": "inactive: 0.4%"}
{"smiles": "COc1ccc(C2=NCC(CBr)S2)cc1", "note": "(centres undefined)", "activation": "inactive: -3.83%"}
{"smiles": "CC(=O)N1C2C3N(C(C)=O)C1C1N(C(C)=O)C(C(N1C(C)=O)N3C(C)=O)N2C(C)=O", "activation": "inactive: -0.87%"}
{"smiles": "O=[N+]([O-])c1cccc2n[nH]nc12", "activation": "inactive: 1.6%"}
{"smiles": "O=[N+]([O-])c1cc([N+](=O)[O-])c(CCNc2ccccc2)c([N+](=O)[O-])c1", "activation": "inactive: -8.41%"}
{"smiles": "CCc1nc2c(n1)c1c(non1O)c1c2no[n+]1[O-]", "activation": "inactive: 1.1%"}
{"smiles": "Cc1ccc(NP(=O)(Oc2ccccc2)Oc2ccccc2)nc1", "activation": "inactive: -4.92%"}
{"smiles": "C[N+]1=C2C=CC=CC=C2SC12C([N+](=O)[O-])=CC([N+](=O)[O-])=C[C-]2[N+](=O)[O-]", "note": "(centres undefined)", "activation": "inactive: -11.2%"}
{"smiles": "Nc1ccc([As](=O)(O)c2ccc(N)cc2)cc1", "activation": "inactive: 3.32%"}
